Earlier results in patent US20050112093A1, “Combination therapy for HCV infection” (priority 2003, published 2005).

Assays:
[1] = in vivo
HCV = settings: phase III study, 1,149 treatment naïve patients, 48-week treatment course; PEG-IFN-α2a 180 μg

Row | Substance | serum half-life [1] | SVR (HCV)
1 | PEG-IFN-α2b: peginterferon alfa-2b, incorporates 12 kDa PEG molecules; Schering Plough Corporation | approximately 31 hours | 
2 | PEG-IFN-α2a: peginterferon alfa-2a, incorporates 40 kDa PEG molecules; Roche Laboratories | approximately 80 hours | 30%
